Values of other authors as cited in patent US20220153803A1, “MODIFIED GLUCAGON MOLECUES AND FORMULATIONS WITH OXIDATION RESISTANCE AND METHODS AND KITS OF EMPLOYING THE SAME” (Purdue Research Foundation, priority 2019, published 2022).
Read-outs that look alike come from different tables or passages of the source.

Legend:
[1] = aqueous

Which half life (intramuscular dose) does the source give for `CSCC[C@H](NC(=O)[C@H](CC(C)C)NC(=O)[C@H](Cc1c[nH]c2ccccc12)NC(=O)[C@H](CCC(N)=O)NC(=O)[C@@H](NC(=O)[C@H](Cc1ccccc1)NC(=O)[C@H](CC(=O)O)NC(=O)[C@H](CCC(N)=O)NC(=O)[C@H](C)NC(=O)[C@H](CCCN=C(N)N)NC(=O)[C@H](CCCN=C(N)N)NC(=O)[C@H](CO)NC(=O)[C@H](CC(=O)O)NC(=O)[C@H](CC(C)C)NC(=O)[C@H](Cc1ccc(O)cc1)NC(=O)[C@H](CCCCN)NC(=O)[C@H](CO)NC(=O)[C@H](Cc1ccc(O)cc1)NC(=O)[C@H](CC(=O)O)NC(=O)[C@H](CO)NC(=O)[C@@H](NC(=O)[C@H](Cc1ccccc1)NC(=O)[C@@H](NC(=O)CNC(=O)[C@H](CCC(N)=O)NC(=O)[C@H](CO)NC(=O)[C@@H](N)Cc1c[nH]cn1)[C@@H](C)O)[C@@H](C)O)C(C)C)C(=O)N[C@@H](CC(N)=O)C(=O)N[C@H](C(=O)O)[C@@H](C)O` [native Glucagon, native glucagon] here?
Its half life is 20 to 26 min.

And the half life (nasal powder dose)?
Its half life is 30 to 45 min.

And the half life (subcutaneous auto-injector or pre-filled dose)?
Its half life is 28 to 35 min.

What about the “pH range of solubility” value [1] of the same compound?
The value was “soluble at a pH of 3 or below and at a pH of 10 and above”.
